Our source for the IC50 values is paper PMC5708365, “Histone lysine methyltransferase structure activity relationships that allow for segregation of G9a inhibition and anti-Plasmodium activity” (MedChemComm, 2017).

In assay [1] the target is T1, G9a (Homo sapiens, UniProt Q96KQ7).
T1 sequence (Q96KQ7 1-1210): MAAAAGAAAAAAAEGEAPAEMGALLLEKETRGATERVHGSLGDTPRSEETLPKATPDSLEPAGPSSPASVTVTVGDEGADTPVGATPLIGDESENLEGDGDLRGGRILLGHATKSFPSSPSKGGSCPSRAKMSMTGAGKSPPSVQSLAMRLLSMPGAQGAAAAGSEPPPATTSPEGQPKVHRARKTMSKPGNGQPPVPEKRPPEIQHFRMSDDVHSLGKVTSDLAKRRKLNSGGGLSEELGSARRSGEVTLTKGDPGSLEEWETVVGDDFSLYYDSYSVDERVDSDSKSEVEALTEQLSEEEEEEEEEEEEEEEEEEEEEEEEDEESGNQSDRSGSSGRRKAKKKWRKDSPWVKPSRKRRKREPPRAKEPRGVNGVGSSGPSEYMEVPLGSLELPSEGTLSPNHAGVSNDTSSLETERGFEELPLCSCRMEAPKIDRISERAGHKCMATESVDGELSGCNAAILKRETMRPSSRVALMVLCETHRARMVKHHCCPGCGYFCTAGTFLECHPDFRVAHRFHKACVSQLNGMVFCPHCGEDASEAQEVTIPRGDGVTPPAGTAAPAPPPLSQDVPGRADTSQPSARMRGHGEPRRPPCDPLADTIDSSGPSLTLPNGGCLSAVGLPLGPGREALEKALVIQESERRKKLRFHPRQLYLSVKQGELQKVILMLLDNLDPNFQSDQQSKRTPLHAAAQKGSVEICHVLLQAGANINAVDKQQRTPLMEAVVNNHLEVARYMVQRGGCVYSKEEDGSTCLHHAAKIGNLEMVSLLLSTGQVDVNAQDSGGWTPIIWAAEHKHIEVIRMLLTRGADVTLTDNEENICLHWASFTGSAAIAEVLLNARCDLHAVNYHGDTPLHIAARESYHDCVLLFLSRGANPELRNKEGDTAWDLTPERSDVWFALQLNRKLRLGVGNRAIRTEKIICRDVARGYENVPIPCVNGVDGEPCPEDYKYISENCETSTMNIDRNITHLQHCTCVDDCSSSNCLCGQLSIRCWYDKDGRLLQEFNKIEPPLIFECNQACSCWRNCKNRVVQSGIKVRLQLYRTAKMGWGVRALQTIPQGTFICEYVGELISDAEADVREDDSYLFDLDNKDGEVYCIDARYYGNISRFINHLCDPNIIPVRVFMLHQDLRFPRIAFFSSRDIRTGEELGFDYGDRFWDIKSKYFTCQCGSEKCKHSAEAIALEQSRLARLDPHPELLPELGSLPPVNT
The conditions noted are these: read-out: G9a IC50; SPA, 5 nM G9a, H3 1-25 peptide 0.8 μM, 3H-SAM 8 μM.

For assay [2], the target named is T1, G9a. The conditions noted are these: read-out: G9a IC50; CLOT assay; cited from earlier work.
The target in assay [3] is T1, G9a. The conditions noted are these: read-out: G9a IC50; ECSD assay; cited from earlier work.

Structures are written as SMILES. Read-outs that look alike come from different tables or passages of the source.

By IC50 is commonly meant the concentration at which inhibition is half-maximal.

Turning to `COc1cc2nc(N3CCC(OC)CC3)nc(NC3CCN(CC4CCCCC4)CC3)c2cc1OC` [compound 47], the IC50 at G9a [1] was 185 nM.

For the molecule `COc1cc2nc(N3CCN(C)CC3)nc(NC3CCN(C4CCCCC4)CC3)c2cc1OC` [compound 49], the IC50 at G9a [1] came to 49 nM.

For the molecule `COc1cc2c(NC3CCN(C)CC3)nc(N3CCCN(C)CC3)nc2cc1OCCCN(C)C` [compound 66, reference compound], the values for the IC50 at G9a [2] and at G9a [3] were 57 nM and 43 nM, respectively.
